## Antibody variant affinities, Ab-14 heavy chain, assay 1

Reference: Engelhart et al. 2022, doi:10.1038/s41597-022-01779-4. File: FLAb, binding data.

The target is the same throughout: PDVDLGDISGINAS, from the HR2 region of SARS-CoV-2 spike.

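The starting antibody came from a phage panning campaign against this peptide. The library (AAYL49) carries one to three amino acid substitutions per variant, with no insertions or deletions. Affinity was read by AlphaSeq, a pooled yeast mating assay with surface-displayed partners. Mating (16 h, 30 °C) was followed by selection of diploids and sequencing of their barcodes. Each replicate has its own calibration line, from reference interactions of the BCL2 family. There are three technical replicates.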

Parent scFv Ab-14: VH joined to VL by a 15-residue (Gly4Ser)3 linker. Changes lie in the heavy chain CDRs alone.
VH: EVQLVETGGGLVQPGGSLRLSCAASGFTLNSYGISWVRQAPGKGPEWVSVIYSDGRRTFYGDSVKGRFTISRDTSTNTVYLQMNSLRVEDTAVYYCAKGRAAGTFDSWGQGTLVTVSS
VL: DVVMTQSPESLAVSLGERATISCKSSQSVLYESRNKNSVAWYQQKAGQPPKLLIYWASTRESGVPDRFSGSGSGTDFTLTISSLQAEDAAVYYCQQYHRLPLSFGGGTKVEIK

The parent's heavy chain CDRs are GFTLNSYGIS, VIYSDGRRTFYGDSVK, GRAAGTFDS; each variant's own CDRs replace them letter for letter.
Numbers give log10(Kd / nM), so 0 is 1 nM and 3 is 1 µM. Smaller is tighter.
A mean of the replicates is given; it leaves out those without a signal.
"ND" marks a missing value. The strain was present, yet no cells mated with the target were sequenced in that replicate, which points to weak or no binding.

CDR-H1,CDR-H2,CDR-H3,log10 Kd (nM) by replicate,"mean, log10 nM",empty controls
GFTLNSGGIS,VIYSDQRRTFYGNSVK,GRAAGTFDS,ND / ND / ND,ND,3/9 (4.17)
GFTLNSYGGS,VIYMDGRRTFYGDSVK,GRAFGTFDS,ND / ND / ND,ND,0/9
GFTLNSYGIS,VIYSDGRRTFYGDSEK,LRAAGTEDS,1.16 / 0.93 / 1.34,1.14,0/9
GFTLNSYGYS,VIYSDGRRTFYGDSPK,GRAAGTFFS,ND / ND / ND,ND,0/9
GFNLNSYGIS,VIYSDGRRTFYGDSVK,GRAAGTADS,2.18 / 2.16 / 2.28,2.21,1/9 (3.18)
GDTLNSYGIS,VIYSDGRRTFYGDHVK,GRAAGTFDS,0.67 / 0.99 / 0.86,0.84,2/9 (4.84)
GFLLNSYGIS,VIYSDGKRTFYGDSVK,GEAAGTFDS,1.55 / 1.42 / 1.19,1.39,0/9
GFTLNSYGIS,VIYSDGRRTFYGDSVK,GRAAMTFDS,ND / ND / 4.13,4.13,1/9 (3.50)
GFTCNSYGIS,VIYSDGRRHFYGDSVK,GRAANTFDS,ND / ND / ND,ND,3/9 (3.61)
GFTLQSYGIS,VIMSDGRRTFYGDSVK,GRAAGTFDS,ND / 4.37 / ND,4.37,1/9 (3.39)
GFTLNSYGAS,VIYSDNRRTFYSDSVK,GRAAGTFDS,ND / ND / 3.49,3.49,1/9 (3.53)
GFTLNSYGIS,VIYSWGRRTFYGPSVK,GRAVGTFDS,ND / 4.72 / ND,4.72,4/9 (3.94)
QFTLNSYGIS,VIYSDGRRTFYGDSSK,GRCAGTFDS,1.75 / 1.85 / 2.35,1.98,0/9
GFTLNSYGIS,VIYSEGRRTFYGDSVK,GRAAGKFDS,ND / 4.32 / ND,4.32,1/9 (3.45)
GFTLNSYGIS,VIYSDGRRIFLGDSVK,GRMAGTFDS,ND / ND / ND,ND,0/9
GFTLNCYGIS,VIPSDGRRTFYGDPVK,GRAAGTFDS,ND / ND / 3.72,3.72,0/9
GFTLNSYGIS,VIYSLGRSTFYGDSVK,GRATGTFDS,ND / ND / ND,ND,0/9
GFTHNKYGIS,VIYSDGRRTFYGDSVK,GRAAGTFMS,ND / ND / 3.51,3.51,0/9
GFTLNSYGIW,VIYSDGRRTFYGDSVG,GRAIGTFDS,ND / ND / ND,ND,0/9
GFHLNSYGIS,VIYSDGRRTFYGDSAK,GRAAGTFLS,2.33 / 2.32 / 2.49,2.38,0/9
GKTLNSYGIS,VIDSDGRRTFYGDSVK,GRAAGAFDS,ND / ND / 5.06,5.06,2/9 (3.65)
GFTLNSYGIS,VIYSDGRRTFYGDKVK,GRLAGTFDS,1.35 / 1.47 / 1.79,1.54,1/9 (4.95)
GRTLNSYGIS,VIYSDGRRTFYGDSVK,GRSAGTFDS,2.33 / 2.34 / 2.03,2.23,1/9 (4.72)
GFTLNLYGIS,VIASDGRRTFYGDSVK,GRAAMTFDS,5.35 / ND / ND,5.35,1/9 (3.66)
GFTLNSYGIS,VIYSDGRRTFMGDSVK,GRAAGTWDS,ND / 3.89 / 3.08,3.48,1/9 (4.41)
GQTLNSYGIS,VIYSDGRRTFYGTSVK,GRAFGTFDS,ND / 3.61 / ND,3.61,0/9
GNTLNSYGIS,VIYSDGRRTFYGDSFK,GRAAGTFDE,1.29 / 1.31 / 1.08,1.23,1/9 (3.27)
GFTLNSYGIS,VIYYDGRDTFYGDSVK,GRAARTFDS,ND / ND / 5.15,5.15,1/9 (2.69)
GFTLSSPGIS,VIYSDGRRTFYGDSVK,YRAAGTFDS,ND / ND / ND,ND,0/9
GFTLNSYGIS,VIYSDGRRTFNCDSVK,GRAATTFDS,ND / ND / ND,ND,0/9
GFTLHSYHIS,VIYSDGRRTFYGDSVK,GRAAGTFDF,ND / ND / ND,ND,1/9 (3.66)
GFTRNSYGIS,VIYSDGRRTFYLDTVK,GRAAGTFDS,ND / 3.21 / ND,3.21,1/9 (3.28)
GFTLNSYGIS,VIYSDGRRFFFGDSVW,GRAAGTFDS,ND / ND / ND,ND,0/9
GFTLNSYGFL,VIYSDGRCTFYGDSVK,GRAAGTFDS,ND / ND / ND,ND,2/9 (3.10)
GFTLNSYGIS,VIYSDGRRLFYGDSVK,GRAAGWFDS,ND / ND / ND,ND,0/9
GFTLLSYGIS,VIYDDGRRTFYGDSVK,GRAAGTFIS,ND / ND / ND,ND,2/9 (3.70)
NFTLRSYGIS,VIYSDGRRTFYGDSVK,GRAAITFDS,ND / 4.29 / ND,4.29,1/9 (3.01)

Repeated from above, the 3 best binders with a signal in all replicates:

CDR-H1	CDR-H2	CDR-H3	log10 Kd (nM) by replicate	mean, log10 nM	empty controls
GDTLNSYGIS	VIYSDGRRTFYGDHVK	GRAAGTFDS	0.67 / 0.99 / 0.86	0.84	2/9 (4.84)
GFTLNSYGIS	VIYSDGRRTFYGDSEK	LRAAGTEDS	1.16 / 0.93 / 1.34	1.14	0/9
GNTLNSYGIS	VIYSDGRRTFYGDSFK	GRAAGTFDE	1.29 / 1.31 / 1.08	1.23	1/9 (3.27)

As a blank, each scFv also met three strains without target: over library AAYL49, 15% of these pairings were detected, typically at 4.06 and seldom below 2.83. The control count says in how many pairings with the empty strains this scFv gave a signal, with their mean in brackets.
In this assay the parent's reference entry averaged 0.65; its copy inside this library read 4.11 (one replicate of three).